Data from patent publication US12661318B2, “Systems and methods for targeted breast cancer therapies” (American University of Sharjah, priority 2017, dated 2026).

Assay: Trastuzumab attachment: protein per lipid and trastuzumab molecules per liposome (BCA + Stewart assays combined)
Assay type: physicochemical
Conditions: Trastuzumab line = immunoliposomes minus control liposomes (attached trastuzumab)
Text: With the knowledge of the molecular weight of trastuzumab and DPPC, the number of trastuzumab molecules per vesicle can be calculated after quantifying the protein and lipids amounts using BCA assay and Stewart assay.
In order to confirm the attachment of the mAb Trastuzumab to liposomes, the BCA assay and Stewart assay may be used as described herein. The BCA assay may be used to determine the concentration of protein in the sample (μg/ml), while the Stewart assay may be used to determine DPPC concentration in the sample (mg/ml). Combining the two methods, a w/w ratio of protein to lipids in (μg/mg) may be obtained, thereby excluding the effect of different concentrations alterations. The results for three batches of liposomes may be averaged to confirm attachment consistency and standard deviation.
Also, the number of liposomes attached per each liposomes vesicle may be calculated. As described herein, the control liposomes are NH2 liposomes that are mixed with the antibody but without performing the attachment reaction. The control liposomes may be purified using the same purification column of that of immunoliposomes, to confirm that any increase in the protein level is only due to attached trastuzumab. Any difference in protein level can be considered due to the presence of attached Trastuzumab.
Assuming a liposome size of 100 nm in radius and an average area for a single phospholipid molecule of about 75 A°, the average number of lipid molecules constructing a single liposomes vesicle may be 80,000. […] This is considered to fall within the optimal range that may induce sufficient cell cytotoxicity. In some embodiments, each immunoliposome may have about 1, 2, 4, 6, 7, 8, 10, 11, 12, 14, 18, 24, 30, 50, or more than 50 trastuzumab molecules conjugated to the liposome vesicle.

Q: Which “protein level per lipids” value (batch 1) does the source give for “Trastuzumab: humanized IgG(1) kappa monoclonal antibody (145.5 kDa) with high affinity towards the HER2 receptor” here?
A: The value was 17.8029 μg protein/mg lipids.

Q: And the “protein level per lipids” value (batch 2)?
A: The value was 20.3999 μg protein/mg lipids.

Q: What about the “protein level per lipids” value (batch 3) of the same substance?
A: Its value is 24.8468 μg protein/mg lipids.
